Assay: serum insulin pharmacokinetics in normal rabbits by enzyme-linked immunoassay
Type: in vivo
Conditions: rabbit, subcutaneous injection, within 30-120 mins, p<0.05
Method: 2. Efficiency. The insulin content in vivo in which normal rabbits are used as pharmacological model are determined by enzyme-linked immunoassay. The pharmacokinetic parameter of the insulin buccal spray according to the present invention is calculated. […] The serum concentration is decreased to base level after 46 hrs.

## insulin
  serum insulin concentration compared with control groups without insulin: significant difference
